## AlphaSeq binding of Ab-14 heavy chain variants to a spike HR2 peptide

From the AlphaSeq antibody data of Li et al. 2023 (doi:10.1038/s41467-023-39022-2), copy in the FLAb collection.

Target: peptide PDVDLGDISGINAS, taken from heptad repeat 2 (HR2) of SARS-CoV-2 spike.

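The parent was found by panning a naive human phage display library on the peptide. This is the validation round: designs drawn from the data on random variants, tested in the same kind of assay. Their group label is 14H_En_Gibbs (En: ensemble of fine-tuned language models; Gibbs: Gibbs sampling). The assay is AlphaSeq: two haploid yeast populations carry antibody and antigen on their surface. The frequency of each diploid, read from paired DNA barcodes, reflects how well the two displayed proteins bind. Scores were corrected for input abundance and mapped to Kd with protein pairs of known affinity run in the same pool. Each pool was mated in six replicate cultures.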

The variants keep the light chain, the linker and the frameworks of Ab-14 (scFv order VH, three GGGGS repeats, VL).
VH: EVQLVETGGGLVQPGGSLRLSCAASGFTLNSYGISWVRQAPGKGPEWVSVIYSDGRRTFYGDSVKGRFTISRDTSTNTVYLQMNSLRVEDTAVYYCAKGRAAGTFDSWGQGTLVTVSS
VL: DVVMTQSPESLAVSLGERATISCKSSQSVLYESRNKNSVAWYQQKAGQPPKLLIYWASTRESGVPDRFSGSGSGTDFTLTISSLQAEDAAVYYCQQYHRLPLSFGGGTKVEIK

Each variant is given by its three heavy chain CDRs, as the data file delimits them; those of the parent are GFTLNSYGIS, VIYSDGRRTFYGDSVK, GRAAGTFDS.
Numbers give log10(Kd / nM), so 0 is 1 nM and 3 is 1 µM. Smaller is tighter.
A pair that was not seen in that replicate is written "nd"; this usually means weak binding, but a binder can also be missed.
A sequence measured in both rounds can read differently, since the two assays cover different ranges.
The authors averaged sequences with at least three values out of six and counted those with two or fewer as poor binders.
Background: pairings of all heavy chain designs with three empty control strains gave a value in 1% of cases (median 2.08, 5th percentile 0.84). Values in that range, when seen in few replicates, are hard to tell from nonspecific mating. The control count says in how many pairings with the empty strains this scFv gave a signal, with their mean in brackets.

| CDR-H1 | CDR-H2 | CDR-H3 | log10 Kd, replicates | control signals |
|---|---|---|---|---|
| GYDIQDYGIS | VIYADGQRAAYADEVK | GNIGGIFST | 2.58 / nd / 2.19 / nd / 2.17 / 2.87 | 0 of 18 |
| GFDLKEYGIS | VIYADGVREQYAHSVK | GTYSGKFGM | nd / nd / nd / nd / nd / nd | 1 of 18 (2.00) |
| GFDLEEYGIS | VIYADGMRQMYAQNFK | GYNGSDGTV | nd / nd / nd / nd / nd / nd | 0 of 18 |
| GYDLQDYGIS | VIYADGVRVAYHQSVK | GQLAGIFLL | nd / nd / nd / nd / nd / nd | 0 of 18 |
| GFELDEYGIS | VIYADGKRKAYDNAVK | GFTGGVKLD | nd / nd / nd / nd / nd / nd | 0 of 18 |
| GMNIDEYGIS | VIYADGMRTAYSNAVK | GIVGGDTFS | nd / nd / nd / nd / nd / nd | 1 of 18 (1.81) |
| GFNLDEYGIS | VIYADGTRTSYQPNVK | GVTGGHDVT | nd / nd / nd / nd / nd / nd | 1 of 18 (2.28) |
| GENINEYGIS | VIYADGRRTAYAEDVK | GQSGGTIDV | nd / nd / nd / nd / 2.69 / nd | 0 of 18 |
| GFDLDEYGVS | VIYADGERKAYADKVK | GTHGETRDI | nd / nd / nd / nd / 2.07 / 2.96 | 0 of 18 |
| GFELKEYGIS | VIYADGERAGYADNVK | GEAGGKFLV | nd / nd / nd / nd / nd / nd | 0 of 18 |
| GGDIQEYGIS | VIYADGQRAYYADAVK | GNIGAIFSD | -0.17 / 0.15 / -0.28 / -0.51 / -0.03 / -0.41 | 0 of 18 |
| EFDIQEYGIS | VIYADGKREAYKDKFK | GQVAGTFDA | -1.78 / -1.21 / -1.29 / -1.68 / -1.16 / -1.39 | 0 of 18 |
| GFVLDEYGIS | VIYADGHRTVYAEDFK | GQNGGNFHH | nd / nd / nd / nd / nd / nd | 0 of 18 |
| GDNLDEYGIS | VIYADGFRSHYAEKVK | GQQGGFFIK | nd / nd / nd / nd / nd / nd | 1 of 18 (2.26) |
| GFEIDEYGIS | VIYADGLRYHYANSVK | GEMAGTFTE | -0.04 / 0.15 / nd / nd / 1.40 / nd | 0 of 18 |
| GFSLNEYGIS | VIYADGMRTYYTESVK | GLINDQLFV | nd / nd / nd / nd / nd / nd | 0 of 18 |
| GFDLLEYGIS | VIYADGMRVAYAPDVK | GQEGQLVVD | nd / nd / nd / nd / nd / nd | 0 of 18 |
| GNTIDEYGIS | VIYADGSRVAYDDKFK | GMLVGTFDQ | nd / nd / nd / nd / nd / nd | 0 of 18 |
| GFSIDEYGIS | VIYADGVRTAVDPSVK | GQMAAIFDK | nd / nd / nd / nd / nd / nd | 0 of 18 |
| GFDLAEYGIS | VIYADGSRVAYNQNVK | GTGGGSFDF | nd / nd / nd / nd / nd / nd | 0 of 18 |
| GFDLGEYGIS | VIYADGMRSAYTDQVK | GKGANIVKH | nd / nd / nd / nd / nd / nd | 0 of 18 |
| GMSLDEYGIS | VIYADGVRCAYANTVK | GELAGFFVL | 0.58 / 0.30 / 0.34 / 0.27 / 0.11 / 0.51 | 0 of 18 |
| GFALNEYGIS | VIYADGKRQVYANKVK | GNQTGTLDI | 2.58 / nd / nd / nd / nd / nd | 0 of 18 |
| GMSLDEYGIS | VIYADGVRCEYANTVK | GELAGFFML | nd / nd / nd / nd / nd / nd | 1 of 18 (2.16) |
| GFDLTEYGIS | VIYADGRRQEYVDDVK | GQTAGHFLH | nd / 1.11 / nd / nd / nd / nd | 0 of 18 |
| GFALNEYGIS | VIYADGFRRAYQDKVK | GVLVGNFSV | nd / nd / nd / nd / nd / nd | 0 of 18 |
| GFDLEEMGVS | VIYADGKRKAYKQKVK | GQTAGSFDV | 0.56 / 0.85 / 1.08 / 0.78 / 1.11 / 1.17 | 0 of 18 |
| GFDLEEYGVS | VIYADGNRSQYIDAVK | GIIGDNVSV | nd / nd / nd / nd / nd / nd | 0 of 18 |
| GMDLNEYGIS | VIYADGRRTSYINQVK | GKQSVIVSH | nd / nd / nd / nd / nd / nd | 0 of 18 |
| GFDLDEYGVS | VIYADGRRSKYADSVK | GTTGGTINA | nd / nd / 2.14 / nd / nd / 3.28 | 0 of 18 |
| GYDLDDYGIS | VIYADGKRTSYAENVK | GLIGGSLSN | nd / 1.32 / 0.43 / 1.35 / 1.48 / 1.85 | 0 of 18 |
| GFDLQDYGIS | VIYADGVRTAYVNNVK | GKWGATLSV | nd / nd / nd / nd / nd / nd | 0 of 18 |
| GMDLNEYGIS | VIYADGQRRAYAANFK | GVNIDGFDL | nd / nd / nd / nd / nd / nd | 0 of 18 |
| EFDLNNYGIS | VIYADGLRTAYETSFK | GDNAGTFDS | nd / nd / nd / nd / nd / nd | 0 of 18 |
| GFDLLEYGIS | VIYADGQRVAYKNNVK | GKNGATGSN | nd / nd / nd / nd / nd / nd | 1 of 18 (3.86) |
| GFQLNEYGIS | VIYADGKRSEYQDSVK | GGNNSSFSV | nd / nd / nd / nd / nd / nd | 0 of 18 |
| GRNLDEYGIS | VIYADGLRTSYRDNVK | GQNSGHLDM | nd / nd / nd / nd / nd / nd | 0 of 18 |
| GFDLGEYGVS | VIYADGHRAAYTDNVK | GAESGSVQT | nd / nd / nd / nd / nd / nd | 0 of 18 |
| GFDLEEYGIS | VIYADGLRSYYADNFK | GWNSGTIFV | nd / nd / nd / nd / nd / nd | 0 of 18 |
| GFSIDEYGIS | VIYADGLRQHYANAVK | GEGAGTFDT | 1.83 / 0.96 / 1.49 / 0.73 / 1.67 / 1.32 | 0 of 18 |

The first 5 entries again:

| CDR-H1 | CDR-H2 | CDR-H3 | log10 Kd, replicates | control signals |
|---|---|---|---|---|
| GYDIQDYGIS | VIYADGQRAAYADEVK | GNIGGIFST | 2.58 / nd / 2.19 / nd / 2.17 / 2.87 | 0 of 18 |
| GFDLKEYGIS | VIYADGVREQYAHSVK | GTYSGKFGM | nd / nd / nd / nd / nd / nd | 1 of 18 (2.00) |
| GFDLEEYGIS | VIYADGMRQMYAQNFK | GYNGSDGTV | nd / nd / nd / nd / nd / nd | 0 of 18 |
| GYDLQDYGIS | VIYADGVRVAYHQSVK | GQLAGIFLL | nd / nd / nd / nd / nd / nd | 0 of 18 |
| GFELDEYGIS | VIYADGKRKAYDNAVK | GFTGGVKLD | nd / nd / nd / nd / nd / nd | 0 of 18 |